The values below are quoted from earlier work in US20030003131A1, “Method for manufacture of free-flowing powder containing water-dispersible sterols” (priority 2001, published 2003).

The conditions of this series: orally administered, chronic administration.

For neomycin, the toxicity result is recorded as “toxic”.
